Earlier results on 1 molecule are cited in patent US10308960B2, “Methods for treating cells containing fusion genes” (University of Pittsburgh—of the Commonwealth System of …, priority 2014, dated 2019).

This data set relates to non-small cell lung cancer positive for EML4-ALK. Particulars: advanced and metastatic non-small cell lung cancer positive for EML4-ALK; cited from earlier work.

For `C[C@@H](Oc1cc(-c2cnn(C3CCNCC3)c2)cnc1N)c1c(Cl)ccc(F)c1Cl` [Crisotinib], the “shrinkage of tumor mass in most patients” value is on record as “at least 30%”.
